Assay results reported in BindingDB's records for 26827140.

Sequences of proteins named here, by UniProt entry; tags and fusion partners are left off. Residues count along the entry.
UniProt Q29550, 19-566 limits assumed: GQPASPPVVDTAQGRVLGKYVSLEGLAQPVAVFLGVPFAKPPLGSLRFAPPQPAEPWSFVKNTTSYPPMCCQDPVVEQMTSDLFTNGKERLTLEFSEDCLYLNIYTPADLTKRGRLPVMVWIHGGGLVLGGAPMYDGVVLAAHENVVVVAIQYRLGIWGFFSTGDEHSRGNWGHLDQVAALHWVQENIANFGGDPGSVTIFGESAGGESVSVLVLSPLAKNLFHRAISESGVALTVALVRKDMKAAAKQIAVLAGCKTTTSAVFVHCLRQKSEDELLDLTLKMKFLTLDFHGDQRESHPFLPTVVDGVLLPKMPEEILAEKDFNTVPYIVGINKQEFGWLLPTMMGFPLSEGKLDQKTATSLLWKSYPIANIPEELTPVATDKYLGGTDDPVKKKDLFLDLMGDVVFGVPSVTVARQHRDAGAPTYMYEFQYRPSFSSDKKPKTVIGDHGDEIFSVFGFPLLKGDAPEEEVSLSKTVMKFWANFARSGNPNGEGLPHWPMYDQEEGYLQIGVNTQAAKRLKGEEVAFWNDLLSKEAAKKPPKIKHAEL

Target: Liver carboxylesterase (Sus scrofa, UniProt Q29550)
Test: Inhibition of porcine liver carboxylesterase using 4-nitrophenol acetate as substrate by spectrophotometric analysis

Work on `ICC1CN=C(Nc2ccccn2)S1` (stereo unspecified) yielded an IC50 of 610 µM.
